A selection: hits, their analogues and other compounds. The true share with any hit is near 1.5%.
Cneo AK release – Cryptococcus neoformans lysis via adenylate kinase release; C. neoformans lysis, adenylate kinase release luminescence, 4 h; normalised: neutral wells 0, clomiphene wells 100; lysis activity, % at 15 µM; 360,000 compounds, 0.2% hits; AID 651654;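 active = mean lysis activity across replicates of at least 80%, whatever share of replicates individually reach that level; inactive = mean lysis activity below 80%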
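Test system: log-phase Cryptococcus neoformans yeast cells; Quantity: yeast cell density of 5 × 10^6 cells/mL; Buffer or medium: YPD; Doses: single compound concentration per well; Timing: 4 h at 37 °C static, read 1 h later; Measured by: AK luminescence; Read-out basis: lysis from increased AK signal; Control set: Clomiphene as positive control.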
FN deposition inh – fibronectin deposition inhibition | AH1F fibroblasts, Alexa488-fibronectin deposition fluorescence, overnight | 350,000 compounds, 0.086% hits | AID 743247 | inhibition, % at 12.6 µM;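 active = mean inhibition across replicates of 30% or more, regardless of how many single replicates reach that level; inconclusive = mean under 30% yet at least half of replicates reach 30%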;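 note: positive control wells lacked labelled fibronectin entirely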
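Material: AH1F fibroblast monolayer depositing Alexa488-labelled fibronectin into matrix / Amount: 10000 AH1F cells per well / Signal: fluorescence 485/525 nm / Medium: DMEM, 2% serum / Compound: single dose, pinned / Incubation: 1 h cell adhesion before compound, then overnight fibronectin incubation / Reagent: Alexa488-FN, 24 nM final / Read-out: inhibition of fibronectin deposition signal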
Env fusion inh – blocks HIV Env-driven cell-cell fusion; HeLa-JRFL Env/CEM21 cell fusion, luciferase; inhibition, % at 12.3 µM; 360,000 compounds, 1.1% hits;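 active = mean replicate inhibition score of at least 50 and every replicate individually at or above 50; inconclusive = only one of the two criteria met; inactive = mean below 50 and not all replicates reaching 50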;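 note: 0% = plate neutral controls and 100% = maraviroc near 300 nM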
miR-122 sensor – blocks miR-122 activity in Huh7 sensor cells | Huh7 miR-122 Renilla luciferase sensor, 48 h; neutral wells = 0, positive control = 100 | activation (reporter increase), % at 12.5 µM | 340,000 compounds, 0.3% hits | AID 602342;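 active = mean replicate activation score at least 90 and every replicate individually at or above 90; inconclusive = only one of the two criteria met; inactive = neither criterion met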;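 note: higher luciferase means less miR-122 activity so hits act as miR-122 inhibitors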
PGC1a acetyl inh – lowers PGC1a acetylation signal in U2OS cells; AlphaScreen anti-acetyl-lysine; with virally co-expressed GCN5 acetyltransferase; inhibition, % at 15.6 µM; 350,000 compounds, 0.17% hits; AID 651687;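 active = every replicate shows inhibition of at least 40%; inconclusive = mean inhibition at least 40% but some replicate below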;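 note: 0% = neutral control wells and 100% = positive control wells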
Yeast UUG start – modulators of start codon recognition fidelity in yeast; AID 602363; hit rate 0.13% among 350,000; activity score, % at 18.7 µM; S. cerevisiae UUG-firefly luciferase reporter, luminescence/redox ratio;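 active = replicate mean at a twofold rise or more, about +100% in these data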;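 note: firefly luciferase made from a UUG start codon reports start codon fidelity; reporter light over untreated wells divided by growth signal over untreated wells; some hits fall short of that in this replicate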
* = called active by the depositor; ? = inconclusive; · = no result; ! = repeats disagree; [ ] = dose if it differs, or a comment.

Field names: A = Cneo AK release; B = FN deposition inh; C = Env fusion inh; D = miR-122 sensor; E = PGC1a acetyl inh; F = Yeast UUG start
1	CN1c2ccc(-c3cccc(F)c3)cc2[C@H]2[C@H](CCN2C(=O)c2ccccc2F)[C@H]1CO
  A: -11.5	B: -2.1	C: ·	D: 106.7*[16.7 µM]	E: 19.7	F: 12.4

2	CN1c2ccc(-c3cccc(F)c3)cc2[C@H]2[C@H](CCN2C(=O)C2CC2)[C@H]1CO
  A: -0.7	B: 2.7	C: ·	D: 99.8*[16.7 µM]	E: 2.1	F: 38.0

3	COc1ccc(C2=Nn3c(nnc3-c3ccccc3Cl)SC2)cc1OCC1CC1
  A: -1.1	B: -6.6	C: -21.6	D: -8.8	E: 6.4	F: -21.0

4	O=C1C2C3C=CC(C4CC34)C2C(=O)N1/N=C/c1c[nH]c2ccccc12 (stereo not given)
  A: ·	B: -8.1	C: -71.7	D: 0.2	E: 106.0*	F: ·

5	COc1ccc(C(=O)CSC2=C(C#N)C3(CCCCC3)C(C#N)=C(N)N2)cc1
  A: 1.7	B: 15.6	C: 76.3*	D: 10.7	E: 0.7	F: -12.6

6	N#CC1=C(N)NC(SCC(=O)Nc2ccccc2)=C(C#N)C12CCCCC2
  A: 3.7	B: 1.8	C: 113.1*	D: 3.9	E: 4.1	F: -15.4

7	N#CC1=C(N)NC(SCC(=O)c2ccc(Br)cc2)=C(C#N)C12CCCCC2
  A: -3.1	B: -10.7	C: 41.9	D: 1.4	E: ·	F: -5.8

8	Cc1nn(C)cc1CNC(=O)c1cccc(Br)c1
  A: -1.8	B: -1.2	C: -44.4	D: 0.7	E: 1.2	F: -7.4

9	O=S(=O)(NCCc1ccncc1)c1cc(Br)ccc1F
  A: 0.0	B: 2.7	C: 6.7	D: 123.5*	E: 6.7	F: -11.6

10	Fc1ccc(CN2CCN(C(c3ccccc3)c3ccccc3)CC2)cc1
  A: 1.2	B: 7.0	C: 10.3	D: -8.3	E: 12.9	F: -5.7

11	CCCCOCCCNC(=O)C[C@H]1C[C@@]2(C(=O)OC)C(=C[C@H](C(C)(C)C)O[C@@H]2C)N(CCC2=CCCCC2)C1=O
  A: ·	B: -6.1	C: 65.6*	D: ·	E: ·	F: ·

12	COC(=O)[C@]12C[C@H](CC(=O)NCC34CC5CC(CC(C5)C3)C4)C(=O)N(CCC3=CCCCC3)C1=C[C@H](C(C)(C)C)O[C@@H]2C
  A: ·	B: 10.9	C: 53.2	D: ·	E: ·	F: ·

13	COCCCNC(=O)C[C@H]1C[C@@]2(C(=O)OC)C(=C[C@H](C(C)(C)C)O[C@@H]2C)N(CCC2=CCCCC2)C1=O
  A: ·	B: 2.6	C: 59.8*	D: ·	E: ·	F: ·

14	COC(=O)[C@]12C[C@H](CC(=O)NCCc3ccccc3OC)C(=O)N(Cc3ccccc3)C1=C[C@H](C(C)(C)C)O[C@@H]2C
  A: ·	B: -8.5	C: 20.3	D: ·	E: ·	F: ·

15	COC(=O)[C@]12C[C@H](CC(=O)NCCc3ccccc3OC)C(=O)N(CCC3=CCCCC3)C1=C[C@H](C(C)(C)C)O[C@@H]2C
  A: ·	B: 8.1	C: 60.9*	D: ·	E: ·	F: ·

16	COC(=O)[C@]12C[C@H](CC(=O)NCC3CCCCC3)C(=O)N(CCC3=CCCCC3)C1=C[C@H](C(C)(C)C)O[C@@H]2C
  A: ·	B: 12.1	C: 70.9*	D: ·	E: ·	F: ·

17	COc1ccccc1CNC(=O)[C@@H]1CCCN1S(=O)(=O)c1ccc(Cl)cc1
  A: 0.4	B: -3.4	C: 19.6	D: ·	E: ·	F: -12.3

18	C[C@H]1CN([C@@H](C)CO)C(=O)CCCn2nncc2CO[C@H]1CN(C)S(C)(=O)=O
  A: -0.2	B: 1.5	C: -4.5	D: -4.6	E: -2.9	F: -6.8

19	C[C@@H]1CN([C@@H](C)CO)C(=O)c2cc(NC(=O)c3ccccc3)ccc2O[C@@H](C)CCCCO[C@H]1CN(C)C(=O)Nc1ccc2c(c1)OCO2
  A: -5.3	B: ·	C: -9.2[16.7 µM]	D: 1.0[16.7 µM]	E: -7.0	F: 31.5

20	COC(=O)[C@]12C[C@H](CC(=O)NCc3cccc(C(F)(F)F)c3)C(=O)N(CCc3ccc(OC)c(OC)c3)C1=C[C@H](C(C)(C)C)O[C@@H]2C
  A: ·	B: -9.3	C: -10.1	D: ·	E: ·	F: ·

21	COC(=O)[C@]12C[C@H](CC(=O)NCc3cccc(C(F)(F)F)c3)C(=O)N(CCC3=CCCCC3)C1=C[C@H](C(C)(C)C)O[C@@H]2C
  A: ·	B: 0.8	C: 101.3*	D: ·	E: ·	F: ·

22	COC(=O)[C@]12C[C@H](CC(=O)NCc3cccs3)C(=O)N(CCC3=CCCCC3)C1=C[C@H](C(C)(C)C)O[C@@H]2C
  A: ·	B: -3.6	C: 75.6*	D: ·	E: ·	F: ·

23	CC1CCCCC1NC(=O)CSc1nnnn1-c1ccccc1 (stereo not given)
  A: -1.3	B: 6.3	C: -35.8	D: 1.6	E: -6.9	F: -12.7

24	O=C(/C=C/c1ccccc1Cl)NCCN1CCOCC1
  A: 3.7	B: ·	C: ·	D: -0.7	E: -2.3	F: -15.3

25	COc1cccc(NC(=O)COc2ccc3c(c2)CCC3)c1
  A: ·	B: 0.8	C: -15.5	D: ·	E: -8.4	F: ·

26	COc1ccc(OC)c(NC(=O)COc2ccc3c(c2)CCC3)c1
  A: -0.5	B: -2.7	C: 70.1*	D: ·	E: ·	F: -10.5

27	S=c1[nH]cc(-c2ccccc2)n1-c1cccc(Cl)c1
  A: ·	B: -10.6	C: 70.2*	D: ·	E: ·	F: ·

28	Cc1ccc(S(=O)(=O)N2CCN(C(=O)Cc3ccc(S(=O)(=O)N4CCOCC4)s3)CC2)cc1
  A: 0.1	B: ·	C: 38.4	D: -1.4	E: ·	F: -1.6

29	O=C(Cc1ccc(S(=O)(=O)N2CCOCC2)s1)N1CCN(S(=O)(=O)c2ccc(Cl)cc2)CC1
  A: -0.5	B: -4.3	C: 69.6*	D: -1.7	E: 3.5	F: -7.3

30	COc1ccc(C(O)(CCC(C)C)C(CN2CCOCC2)c2ccc(Cl)cc2)cc1 (stereo not given)
  A: 5.9	B: -8.7	C: ?	D: -5.6	E: -18.5	F: 13.3

31	CCOc1ccc(C(O)(CCC(C)C)C(CN2CCOCC2)c2ccccc2)cc1 (stereo not given)
  A: 1.9	B: -7.5	C: 72.2*	D: ·	E: -35.7	F: 0.4

32	COc1ccc(S(=O)(=O)N(C)C[C@H]2Oc3cc(C#CC4CC4)ccc3S(=O)(=O)N([C@H](C)CO)C[C@H]2C)cc1
  A: 53.5	B: 5.0	C: 37.2[16.7 µM]	D: 134.5*[16.7 µM]	E: -35.2	F: 8.4

33	COc1ccc(S(=O)(=O)N(C)C[C@H]2Oc3cc(Br)ccc3S(=O)(=O)N([C@H](C)CO)C[C@H]2C)cc1
  A: 1.1	B: 2.3	C: ?	D: 32.3	E: 4.3	F: -12.4

34	COc1ccc(S(=O)(=O)N(C)C[C@@H]2Oc3cc(Br)ccc3S(=O)(=O)N([C@H](C)CO)C[C@@H]2C)cc1
  A: -0.7	B: -5.5	C: 57.3*!	D: 9.1	E: -16.3	F: -4.6

35	Cc1ccc(S(=O)(=O)N(C)C[C@@H]2Oc3cc(C#CC4CCCC4)ccc3S(=O)(=O)N([C@H](C)CO)C[C@H]2C)cc1
  A: -4.6	B: 7.4	C: 58.4*[16.7 µM]	D: 5.5[16.7 µM]	E: -5.6	F: -3.7

36	COCC(C)n1c(C)cc(C(=O)COC(=O)c2cnc(Cl)c(Cl)c2)c1C (stereo not given)
  A: 0.7	B: 1.1	C: -10.2	D: ·	E: ·	F: -12.7

37	OC(CN1CCN(c2cccc(Cl)c2)CC1)c1ccccc1 (stereo not given)
  A: -1.6	B: -8.1	C: 15.2	D: 3.7	E: 3.5	F: -11.7

38	O=C(C[C@@H]1C=C[C@H](NC(=O)c2ccc3c(c2)OCO3)[C@H](CO)O1)NC1Cc2ccccc2C1
  A: 15.2	B: -12.3	C: -6.0[16.7 µM]	D: ·	E: -7.2	F: -3.6

39	CCC(=O)Nc1ccc2c(c1)C(=O)N(C)C[C@@H](OC)[C@H](C)CN[C@@H](C)CO2
  A: 102.3*	B: -15.1	C: ·	D: 16.0[16.7 µM]	E: 7.6	F: 19.5

40	CO[C@@H]1CN(C)C(=O)c2ccc(NC(=O)c3ccc(-c4ccccc4)cc3)cc2OC[C@@H](C)NC[C@H]1C
  A: ·	B: 39.7*	C: ·	D: ·	E: -0.1	F: ·

41	COc1ccc(-c2cc(C(=O)N3CCN(c4ccccc4O)CC3)c3ccccc3n2)cc1OC
  A: -1.6	B: -8.7	C: -2.1	D: 6.3	E: 2.1	F: -5.2

Part of the list above, with values under each structure:
Each structure is followed by: Cneo AK release, FN deposition inh, Env fusion inh, miR-122 sensor, PGC1a acetyl inh, Yeast UUG start
#15 COC(=O)[C@]12C[C@H](CC(=O)NCCc3ccccc3OC)C(=O)N(CCC3=CCCCC3)C1=C[C@H](C(C)(C)C)O[C@@H]2C
    ·, 8.1, 60.9*, ·, ·, ·
#16 COC(=O)[C@]12C[C@H](CC(=O)NCC3CCCCC3)C(=O)N(CCC3=CCCCC3)C1=C[C@H](C(C)(C)C)O[C@@H]2C
    ·, 12.1, 70.9*, ·, ·, ·
#17 COc1ccccc1CNC(=O)[C@@H]1CCCN1S(=O)(=O)c1ccc(Cl)cc1
    0.4, -3.4, 19.6, ·, ·, -12.3

Source: PubChem BioAssay
